The nature of assay [1]: small-molecule binders of probe aLefty1, primary screen, biochemical, small-molecule microarray, 635/667 nm fluorescence (AID 1153).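 Further: score merges spot fluorescence with signal-to-noise ratio from the scanned slide images.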 The conditions noted are these: higher = more signal.
Assay [2] is described as follows: osmotic lysis modulators in infected erythrocytes, primary screen, PSAC antagonist project, cell-based, P. falciparum Indochina, OD700, 3 h (AID 1156). The conditions noted are these: higher = more signal, called active from +8 up or from −8 down.
Assay [3] is described as follows: PSAC antagonists in infected red cells, primary screen, cell-based, P. falciparum Indochina, OD700, 18 h (AID 1157). The conditions noted are these: P. falciparum Indochina infected erythrocytes, osmotic lysis OD700, 18 h; higher = more signal, called active from +8 up or from −8 down.
Assay [4] in a line: modulators of S6 phosphorylation in cells, primary screen, cell-based, A549, cytoblot, luminescence, serum-stimulated (AID 1158).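 Further: serum-stimulated A549 lung adenocarcinoma cells; signal is phosphorylated S6 detected by cytoblot immunostaining with HRP secondary.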 The conditions noted are these: A549 phospho-S6 cytoblot, 5 h, higher = more signal.
Assay [5] concerns the target NADPH oxidase 2 (Homo sapiens) (UniProt P04839). Put plainly: NOX2-dependent H2O2 signal modulators, primary screen, NOX inhibitor project, cell-based, HEK293-NOX2, PMA-stimulated, Amplex Red fluorescence (AID 1159). Further: test concentration not given here. The conditions noted are these: 45 min, higher = more signal, called active from +8 up or from −8 down.
Assay [6] deals with NADPH oxidase 4 (Homo sapiens) (UniProt Q9NPH5). Put plainly: NOX4-dependent H2O2 signal modulators, primary screen, NOX inhibitor project, cell-based, HEK293-NOX4, tetracycline-induced, Amplex Red fluorescence (AID 1160). The conditions noted are these: 45 min, higher = more signal, called active from +8 up or from −8 down.
The target of assay [7] is NADPH oxidase 5 (Homo sapiens) (UniProt Q96PH1). Briefly: NOX5-dependent H2O2 signal modulators, primary screen, NOX inhibitor project, cell-based, HEK293-NOX5, Amplex Red fluorescence (AID 1161). The conditions noted are these: HEK293-NOX5, ionomycin, 45 min, higher = more signal.
Assay [8] can be described thus: A549 cell viability effects, profiling panel, calcein-AM fluorescence, 48 h, basal (AID 1162). Further: test concentration not given here. The conditions noted are these: higher = more signal.
Assay [9] in a line: adipocyte viability effects, profiling panel, cell-based, 3T3-L1 adipocytes, calcein-AM fluorescence, 48 h, basal (AID 1163). Further: test concentration not given here. The conditions noted are these: 3T3-L1 adipocytes viability, higher = more signal.
A short description of assay [10]: HepG2 cell viability effects, profiling panel, calcein-AM fluorescence, 48 h, basal (AID 1164). Further: test concentration not given here. The conditions noted are these: higher = more signal.
Assay [11] in a line: MM1S cell viability effects, profiling panel, calcein-AM fluorescence, 48 h, basal (AID 1165).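 Further: viability of MM1S multiple myeloma cells under basal unstimulated conditions; test concentration not given here.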 The conditions noted are these: higher = more signal.
A short description of assay [12]: basal RPMI8226 viability, no added stimulus, profiling panel, cell-based, calcein-AM fluorescence, 48 h, PK04 Diversity Set (AID 1166).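 Further: cells grown under basal conditions without added stimulus; test concentration not given here.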 The conditions noted are these: RPMI8226 myeloma viability, higher = more signal.
A short description of assay [13]: basal HepG2 mitochondrial membrane potential changes, profiling panel, cell-based, JC-1 fluorescence, 24 h, 100 nL compound (AID 1167). Further: test concentration not given here. The conditions noted are these: higher = more signal.
Assay [14] is described as follows: basal 3T3-L1 adipocyte mitochondrial potential changes, profiling panel, cell-based, JC-1 fluorescence, 3T3-L1 adipocytes, 24 h, 100 nL compound (AID 1168). Further: test concentration not given here. The conditions noted are these: JC-1 mitochondrial fluorescence, higher = more signal, called active from +8 up or from −8 down.
The nature of assay [15]: basal RPMI8226 mitochondrial membrane potential changes, profiling panel, cell-based, JC-1 fluorescence, 24 h, 100 nL compound (AID 1169). Further: test concentration not given here. The conditions noted are these: RPMI8226 myeloma, JC-1 mitochondrial potential fluorescence, higher = more signal.
Assay [16] in a line: basal MM1S mitochondrial membrane potential changes, profiling panel, cell-based, JC-1 fluorescence, 24 h, 100 nL compound (AID 1170). Further: test concentration not given here. The conditions noted are these: higher = more signal.
The nature of assay [17]: A549 lung cancer cell viability effects, profiling panel, resazurin fluorescence, 24 h, PK04 Diversity Set (AID 1171). Further: test concentration not given here. The conditions noted are these: higher = more signal, called active from +8 up or from −8 down.
Assay [18] in a line: HepG2 liver cancer cell viability effects, profiling panel, resazurin fluorescence, 24 h, PK04 Diversity Set (AID 1172). Further: test concentration not given here. The conditions noted are these: higher = more signal. For orientation: Resazurin is reduced to fluorescent resorufin, in cell work by metabolically active cells.
Assay [19] is described as follows: basal S. cerevisiae growth modulation, no modifier, primary screen, OD600, strain BY4716, 24 h, basal condition (AID 1173). The conditions noted are these: OD600, 24 h, higher = more signal, called active from +8 up or from −8 down.
A short description of assay [20]: MM1S myeloma cell viability, profiling panel, resazurin fluorescence, basal, 24 h, PK04 Diversity Set (AID 1174).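 Further: MM1S multiple myeloma cell line; test concentration not given here.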 The conditions noted are these: higher = more signal, called active from +8 up or from −8 down.

Sequences of proteins named here, by UniProt entry; tags and fusion partners are left off. A change or cut given only in a name is not applied to a line headed by its entry.
UniProt P04839: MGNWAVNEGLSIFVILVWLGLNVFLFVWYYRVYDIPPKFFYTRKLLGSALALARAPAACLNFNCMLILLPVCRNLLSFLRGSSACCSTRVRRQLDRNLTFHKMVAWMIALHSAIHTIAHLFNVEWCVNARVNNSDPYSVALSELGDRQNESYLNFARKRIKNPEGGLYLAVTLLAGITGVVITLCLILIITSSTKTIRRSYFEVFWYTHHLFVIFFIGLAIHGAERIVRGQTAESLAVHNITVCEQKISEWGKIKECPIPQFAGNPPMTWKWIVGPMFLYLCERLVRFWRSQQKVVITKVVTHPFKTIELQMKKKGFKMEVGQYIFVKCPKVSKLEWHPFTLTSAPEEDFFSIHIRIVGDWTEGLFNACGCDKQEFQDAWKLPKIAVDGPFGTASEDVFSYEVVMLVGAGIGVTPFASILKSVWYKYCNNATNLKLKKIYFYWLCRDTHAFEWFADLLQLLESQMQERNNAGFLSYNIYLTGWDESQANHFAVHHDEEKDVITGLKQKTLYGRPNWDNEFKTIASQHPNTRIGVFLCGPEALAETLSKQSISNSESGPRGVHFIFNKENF
UniProt Q9NPH5: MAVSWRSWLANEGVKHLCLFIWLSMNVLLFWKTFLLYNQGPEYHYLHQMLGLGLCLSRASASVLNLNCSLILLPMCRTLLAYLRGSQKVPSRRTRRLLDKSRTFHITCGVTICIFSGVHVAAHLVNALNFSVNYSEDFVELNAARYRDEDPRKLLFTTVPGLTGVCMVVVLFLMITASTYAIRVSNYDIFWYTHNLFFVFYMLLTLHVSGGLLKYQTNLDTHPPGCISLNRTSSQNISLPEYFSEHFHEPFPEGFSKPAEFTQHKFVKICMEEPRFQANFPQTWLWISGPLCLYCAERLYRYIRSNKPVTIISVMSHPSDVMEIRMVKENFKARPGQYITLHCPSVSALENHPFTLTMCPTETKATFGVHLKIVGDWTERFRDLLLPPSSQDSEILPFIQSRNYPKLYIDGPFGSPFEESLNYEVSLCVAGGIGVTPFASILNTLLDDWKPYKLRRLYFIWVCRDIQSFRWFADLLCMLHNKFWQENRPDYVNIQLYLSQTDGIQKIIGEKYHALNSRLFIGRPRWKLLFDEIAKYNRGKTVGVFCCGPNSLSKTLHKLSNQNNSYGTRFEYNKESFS
UniProt Q96PH1: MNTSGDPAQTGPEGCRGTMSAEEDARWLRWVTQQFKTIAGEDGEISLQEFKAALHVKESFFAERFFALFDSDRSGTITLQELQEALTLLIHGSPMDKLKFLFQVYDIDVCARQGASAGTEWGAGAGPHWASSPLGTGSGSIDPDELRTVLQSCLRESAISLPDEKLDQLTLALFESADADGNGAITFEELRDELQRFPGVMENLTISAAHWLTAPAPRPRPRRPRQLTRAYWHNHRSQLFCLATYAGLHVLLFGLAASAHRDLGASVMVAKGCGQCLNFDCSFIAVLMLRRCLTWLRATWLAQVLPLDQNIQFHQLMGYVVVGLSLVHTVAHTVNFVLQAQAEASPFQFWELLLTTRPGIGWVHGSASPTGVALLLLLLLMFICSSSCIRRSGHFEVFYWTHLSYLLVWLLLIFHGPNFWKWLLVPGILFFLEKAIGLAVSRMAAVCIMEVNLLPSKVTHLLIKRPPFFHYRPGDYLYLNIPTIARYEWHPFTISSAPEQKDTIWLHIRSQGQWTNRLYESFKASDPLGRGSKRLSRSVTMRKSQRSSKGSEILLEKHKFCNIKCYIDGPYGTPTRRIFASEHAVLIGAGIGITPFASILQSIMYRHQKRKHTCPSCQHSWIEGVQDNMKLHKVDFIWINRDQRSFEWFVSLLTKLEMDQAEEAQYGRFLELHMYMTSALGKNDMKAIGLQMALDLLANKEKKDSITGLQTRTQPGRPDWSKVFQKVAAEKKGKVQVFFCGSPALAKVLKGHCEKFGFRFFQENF

This is a selection; strong and weak results do not stand in their true shares. The list shows a part of the results. Active and inactive are the calls of the source.

For `COP(=O)(/N=C1/CC(CCCO)=CC(c2ccc(CN3CCCC3)cc2)N1Cc1sc2ccccc2c1Cl)OC` (stereo not given), in assay [1], the composite z-score was 0.956. In addition, the z-score in assay [2] was inactive: 1.53; in assay [3], inactive: 0.723; in assay [4] it was -0.46; in assay [5] it was inactive: 0.236; in assay [6] it was inactive: 0.949; in assay [7], -0.255. The z-score in assay [8] is 1.62; in [9], -0.0171; in [10] it was 1.29; in assay [11], -2.41; in assay [12] it was 0.929; in assay [13], 2.71. The z-score is inactive: 1.2 in assay [14]; -0.539 in assay [15]; 0.017 in assay [16]; inactive: 0.702 in [17]; 0.0636 in assay [18]; inactive: -2.8 in assay [19]. Further, the z-score in assay [20] is inactive: 0.31.
`COP(=O)(/N=C1/CC(CCCO)=CC(c2cccs2)N1C)OC` (stereo not given) came in with a composite z-score in assay [1] of 0.0842. The z-score was inactive: -0.724 in assay [2]; inactive: -1.85 in [3]; 0.287 in assay [4]; inactive: 0.577 in [5]; inactive: 0.893 in assay [6]; 1.81 in [7]. Further, the z-score in assay [8] was 1.6; in assay [9], -0.461; in [10], 0.22; in assay [11] it was 0.445; in [12], 0.654; in assay [13], 1.64. For the same compound, the z-score in assay [14] was inactive: 1.96; in assay [15], 0.754; in [16], 0.0384; in assay [17], inactive: 0.589; in assay [18], 0.878; in [19], inactive: -3.1. Further, in assay [20], the z-score was inactive: 0.875.
Compound `O=P(/N=C1/CC(CCCO)=CC(c2cccs2)N1Cc1cc2c(cc1Br)OCO2)(Oc1ccccc1)Oc1ccccc1` (stereo not given) displayed a composite z-score in [1] of 0.304. Also, the z-score in assay [2] is inactive: 0.881; in assay [3], inactive: 0.941; in assay [4], -0.352; in assay [5], inactive: 0.708; in [6], inactive: -0.377; in assay [7], 0.241. For the same compound, the z-score was -0.389 in assay [8]; 0.0465 in assay [9]; 0.433 in [10]; -0.735 in assay [11]; 0.276 in assay [12]; -0.738 in [13]. The z-score in assay [14] was inactive: -0.0642; in assay [15] it was -0.825; in assay [16] it was 1.46; in [17] it was inactive: -0.465; in assay [18] it was -0.598; in [19] it was inactive: -2.69. Besides, the z-score in [20] was inactive: -0.0096.
In [1], `O=P(/N=C1/CC(CCCO)=CC(c2ccc(CN3CCCC3)cc2)N1Cc1sc2ccccc2c1Cl)(Oc1ccccc1)Oc1ccccc1` (stereo not given) gave a composite z-score of 0.0794. For the same compound, the z-score in assay [2] was inactive: -0.136; in [3] it was inactive: 0.503; in assay [4], 0.374; in assay [5], inactive: -3.61; in assay [6], inactive: -0.644; in [7] it was -0.756. Further, the z-score in [8] was -1.07; in assay [9], 0.0291; in assay [10], -1.01; in assay [11] it was -3.25; in assay [12], -3.96; in assay [13], 2.75. The z-score in [14] was inactive: -2.11; in assay [15], -0.79; in assay [16], -2.07; in assay [17], inactive: 1.04; in assay [18] it was -0.332; in assay [19], inactive: -6.56. The z-score in assay [20] was inactive: -2.54.
As to `CN1/C(=N\P(=O)(Oc2ccccc2)Oc2ccccc2)CC(CCCO)=CC1c1cccs1` (stereo not given), in assay [1], the composite z-score was 0.051. Also, the z-score is inactive: 1.74 in [2]; inactive: 0.355 in [3]; 0.764 in assay [4]; inactive: -1.08 in assay [5]; inactive: -0.234 in [6]; -0.236 in assay [7]. The z-score in assay [8] is -0.53; in assay [9] it was 1.08; in [10], -0.35; in assay [11], 0.561; in assay [12], -0.936; in [13] it was -0.0233. Moreover, the z-score was inactive: -0.488 in assay [14]; 0.0209 in [15]; 0.678 in assay [16]; inactive: -1.39 in [17]; -1.42 in assay [18]; inactive: -1.06 in [19]. In [20], the z-score is inactive: -0.981.
Take `COP(=O)(/N=C1/CC(CCCO)=CC(c2ccc(CN3CCCC3)cc2)N1Cc1cc2c(cc1Br)OCO2)OC` (stereo not given): the composite z-score in assay [1] came out at 0.614. In addition, the z-score was inactive: 0.375 in assay [2]; inactive: -1.46 in [3]; 0.529 in assay [4]; inactive: 0.877 in assay [5]; inactive: 1.78 in assay [6]; 1.09 in assay [7]. The z-score in assay [8] is 1.23; in [9], 0.968; in assay [10] it was 0.607; in assay [11], 0.103; in assay [12] it was 0.945; in [13], 1.8. Moreover, the z-score in [14] is inactive: 1.73; in [15], -0.483; in [16] it was 0.861; in assay [17], inactive: -0.216; in assay [18], 0.531; in assay [19] it was inactive: -2.74. The z-score in [20] is inactive: 0.871.
The compound `COP(=O)(/N=C1/CC(CCCO)=CC(c2ccc(CN3CCCC3)cc2)N1C)OC` (stereo not given) yielded a composite z-score in assay [1] of 0.318. In addition, the z-score in [2] was inactive: 0.369; in [3], inactive: -1.69; in assay [4], 1.19; in assay [5] it was inactive: 0.0697; in assay [6] it was inactive: 0.354; in [7], 0.502. In addition, the z-score was 0.217 in assay [8]; 0.62 in [9]; 0.85 in assay [10]; 0.809 in assay [11]; 0.665 in assay [12]; 1.4 in assay [13]. Besides, the z-score in assay [14] was inactive: 1.2; in assay [15] it was 0.518; in assay [16], 0.478; in assay [17] it was inactive: -0.457; in assay [18] it was 0.0496; in assay [19], inactive: -1.81. Further, in [20], the z-score is inactive: -0.0396.

The record behind these values is PubChem BioAssay.
